The chains behind the UniProt entries cited, without tags or fusion partners. Where a name states a change or a piece, a line headed by the entry shows the natural chain unless it says otherwise.
UniProt Q06830: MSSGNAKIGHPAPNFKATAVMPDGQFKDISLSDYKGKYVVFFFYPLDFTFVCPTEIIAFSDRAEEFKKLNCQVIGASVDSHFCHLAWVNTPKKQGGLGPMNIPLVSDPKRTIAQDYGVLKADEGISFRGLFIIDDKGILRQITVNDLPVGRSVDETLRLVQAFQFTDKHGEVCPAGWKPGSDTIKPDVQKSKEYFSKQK

According to publication PMC9895061 (Signal Transduction and Targeted Therapy, 2023):

Experiments:
PRDX1 [1] = target: T1, PRDX1 (Homo sapiens, UniProt Q06830); experiment: Trx-TrxR-NADPH coupling peroxiredoxin activity assay, PRDX1; assay type: biochemical
[2] = target: recombinant wild type PRDX1 (Homo sapiens, UniProt Q06830); experiment: Surface plasmon resonance (SPR) assay; details: read-out: binding affinity KD with PRDX1 protein, Biacore T200, kinetic analysis
PRDX1 [3] = target: T1, PRDX1; experiment: Determination of Kinact and Ki for inhibition of PRDX1's peroxidase activity; assay type: biochemical

Structure (SMILES): COC(=O)[C@H](C)NC(=O)N[C@]1(C)CC[C@]2(C)CC[C@]3(C)C4=CC=C5C(=CC(=O)C(O)=C5C)[C@]4(C)CC[C@@]3(C)[C@@H]2C1 [19-048, Methyl (((2R,4aS,6aS,12bR,14aS,14bR)-10-hydroxy-2,4a,6a,9,12b,14a-hexamethyl-11-oxo-1,2,3,4,4a,5,6,6a,11,12b,13,14,14a,14b-tetradecahydropicen-2-yl)carbamoyl)-L-alaninate]
- selectivity for PRDX1 among the human PRDX protein family (PRDX1 [1]; PRDX1 vs PRDX2~PRDX6 peroxidase activity, as compared to Celastrol): approximately 500 fold
- IC50 (PRDX1 [1]; read-out: IC50 against the peroxidase activity of PRDX1, recombinant PRDX1, 1.5 h incubation, mean ± SEM, triplicate): 210 nM
- Kd [2]: 250 nM
- Ki (PRDX1 [3]; covalent reactivity (Kinact/Ki determination)): 1880 nM
- Kinact (PRDX1 [3]; incubation 0-100 min): 0.13 ± 0.094 min⁻¹
